The text below walks through data of ChEMBL document CHEMBL1145212, “Fluorinated diaryl sulfides as serotonin transporter ligands: synthesis, structure-activity relationship study, and in vivo evaluation of fluorine-18-labeled compounds as PET imaging agents” (J Med Chem, 2005).

Amino acid sequences for entries named in this document (tags omitted).
UniProt P31645, whole entry: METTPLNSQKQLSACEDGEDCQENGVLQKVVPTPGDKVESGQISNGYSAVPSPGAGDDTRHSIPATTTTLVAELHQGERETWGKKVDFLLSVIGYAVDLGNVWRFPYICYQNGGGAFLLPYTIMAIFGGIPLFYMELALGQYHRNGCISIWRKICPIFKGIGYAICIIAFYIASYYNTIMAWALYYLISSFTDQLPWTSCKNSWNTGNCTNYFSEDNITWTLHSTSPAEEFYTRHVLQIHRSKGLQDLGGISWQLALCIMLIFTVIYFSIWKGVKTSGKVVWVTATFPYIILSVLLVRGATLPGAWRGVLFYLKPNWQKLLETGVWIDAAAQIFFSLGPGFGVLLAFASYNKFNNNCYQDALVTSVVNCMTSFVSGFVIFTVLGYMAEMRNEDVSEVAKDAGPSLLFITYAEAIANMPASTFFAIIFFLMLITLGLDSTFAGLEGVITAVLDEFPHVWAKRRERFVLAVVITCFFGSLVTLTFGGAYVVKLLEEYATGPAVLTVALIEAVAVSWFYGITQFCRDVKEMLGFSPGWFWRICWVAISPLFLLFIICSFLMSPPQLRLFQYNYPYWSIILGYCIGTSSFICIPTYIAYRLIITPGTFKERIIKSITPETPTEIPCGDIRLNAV

The assay deals with Sodium-dependent serotonin transporter (Homo sapiens, UniProt P31645). The assay is described as follows: In vitro displacement of [3H]paroxetine from human serotonin transporter expressed in HEK293 cells. To be noted: tested as the 18F-labelled form. Format: cell-based. In general terms: Loss of bound radioactivity is the signal in a displacement assay; it reports binding, not function.

`CN(C)Cc1ccccc1Sc1ccc(F)cc1N`: the Ki came to 1.46 nM.

One may read the Ki as the dissociation constant of the complex between target and ligand, obtained from inhibition or displacement. A higher Ki goes with weaker binding.
